Measured values from patent US8202893B2, “Cannabinergic lipid ligands” (University of Connecticut, priority 2004, dated 2012).

Amino acid sequences for entries named in this document (tags omitted).
UniProt P97612, whole entry: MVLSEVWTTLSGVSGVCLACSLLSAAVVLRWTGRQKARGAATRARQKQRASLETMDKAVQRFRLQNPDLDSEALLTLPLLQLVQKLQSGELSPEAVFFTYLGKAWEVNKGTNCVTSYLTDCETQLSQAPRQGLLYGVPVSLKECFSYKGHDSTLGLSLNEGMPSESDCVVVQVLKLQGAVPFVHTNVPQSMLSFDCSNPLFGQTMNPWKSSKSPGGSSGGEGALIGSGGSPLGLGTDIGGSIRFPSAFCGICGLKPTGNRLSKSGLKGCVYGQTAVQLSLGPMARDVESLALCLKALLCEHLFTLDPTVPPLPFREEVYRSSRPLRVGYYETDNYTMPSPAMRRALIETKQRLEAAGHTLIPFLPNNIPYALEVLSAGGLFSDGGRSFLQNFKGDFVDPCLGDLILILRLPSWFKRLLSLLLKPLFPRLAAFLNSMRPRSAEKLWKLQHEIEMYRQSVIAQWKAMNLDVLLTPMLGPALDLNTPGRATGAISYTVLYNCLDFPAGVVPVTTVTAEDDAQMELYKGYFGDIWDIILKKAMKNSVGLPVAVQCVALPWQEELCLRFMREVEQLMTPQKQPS
UniProt Q8R431, whole entry: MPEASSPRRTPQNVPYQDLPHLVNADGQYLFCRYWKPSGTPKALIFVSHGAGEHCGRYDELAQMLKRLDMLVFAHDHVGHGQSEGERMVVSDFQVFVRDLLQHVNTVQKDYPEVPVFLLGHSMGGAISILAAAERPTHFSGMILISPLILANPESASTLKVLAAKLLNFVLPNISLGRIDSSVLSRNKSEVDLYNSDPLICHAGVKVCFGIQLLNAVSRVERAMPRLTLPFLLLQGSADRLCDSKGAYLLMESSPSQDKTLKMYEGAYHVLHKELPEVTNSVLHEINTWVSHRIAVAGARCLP
UniProt P20272, whole entry: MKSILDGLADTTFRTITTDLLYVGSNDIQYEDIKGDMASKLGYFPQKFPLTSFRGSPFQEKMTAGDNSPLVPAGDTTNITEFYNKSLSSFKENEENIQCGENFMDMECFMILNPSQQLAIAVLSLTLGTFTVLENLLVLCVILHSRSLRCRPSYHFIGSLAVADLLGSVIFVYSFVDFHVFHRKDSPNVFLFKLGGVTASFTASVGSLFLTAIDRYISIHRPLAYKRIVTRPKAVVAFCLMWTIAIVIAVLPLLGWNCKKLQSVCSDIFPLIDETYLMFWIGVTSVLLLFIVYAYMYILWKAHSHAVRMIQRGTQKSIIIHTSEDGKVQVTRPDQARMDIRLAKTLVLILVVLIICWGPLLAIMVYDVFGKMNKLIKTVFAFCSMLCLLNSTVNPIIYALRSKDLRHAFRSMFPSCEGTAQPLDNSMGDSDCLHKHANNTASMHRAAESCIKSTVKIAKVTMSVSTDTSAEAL

Tests used:
anandamide transporter = test: [3H]Anandamide transporter competition assay; details: read-out: IC50 AT inhibition; human CCF-STG1 astrocytoma cells, 10 nM [3H]anandamide
Protocol: Human CCF-STG1 astrocytoma cells (American Type Culture collection) were grown in RPMI1640 culture medium containing 2 mM L-glutamine, 4.5 g/L glucose, 10 mM HEPES, and 1.0 mM sodium pyruvate, 10% FBS, cultures at 37° C. with 5% CO2. For standard competition assays, confluent cells grown in 24-well plates were rinsed and preincubated for 10 min at 37° C. in assay buffer (Hank's Balanced Salt Solution containing 0.1% DMSO, 10 mM HEPES) plus test compounds (at their final concentrations of 0.01-100 μM). After having discarded the preincubation media, the cells were incubated for 4 min in 0.2 ml assay buffer containing 10 nM [^3H] anandamide (137.6 Ci/mmol, New England Nuclear) plus test compounds. Reactions were stopped by removing the incubation media and rinsing the cells three times with 0.5 ml of ice-cold HBSS buffer containing 0.1% fatty acid-free Bovine Serum Albumin (sigma). Radioactive material in Triton X-100 cell extracts was measured by liquid scintillation counting. A minimum of three independent experiments conducted in six replicates was used to define the concentration needed to produce half-maximal inhibition (IC50) for each compound. IC50 values were obtained by nonlinear regression fitting of the data, using the PRIZM software package. Data are expressed as mean±SEM.

[1] = target: FAAH (fatty acid amide hydrolase) (Rattus norvegicus, UniProt P97612); test: FAAH screening: inhibition of anandamide metabolism to arachidonic acid; details: 25 nmoles compound with 25 nmoles AEA, 75 μg enzyme, 250 μL, 15 min
Protocol: The FAAH (fatty acid amide hydrolase) enzyme preparation was obtained according to the procedure of Lang and Makriyannis et al High Performance Liquid Chromatographic Determination of Anandamide Amidase Activity in Rat Brain Microsomes, Analytical Biochemistry (238): 40-45, 1996.
(§1) All compound solutions were made to a concentration of 10 mM in DMSO. Three tests were performed on each compound: hydrolysis, to determine the stability of the compound in assay conditions without the enzyme present; metabolism, to determine the stability of the compound with the enzyme present; and inhibition of anandamide (native substrate) metabolism to arachidonic acid.
The inhibition of AEA metabolism was measured by mixing 25 nmoles of the compound with 25 nmoles AEA, and 75 μg enzyme preparation in TME buffer with 0.1% BSA (final volume of 250 μL). Again the reaction mixture was treated in the same manner as described above and the concentrations of AEA and AA were calculated using external standards. Percent inhibition was calculated using the following equation: % Inhib.=(AA15-AA0)i/(AA15-AA0)s where (AA15-AA0)c is the amount of arachidonic acid formed over 15 minutes from AEA with the inhibitor present and (AA15-AA0)s is the amount of arachidonic acid formed over 15 minutes from AEA when the inhibitor is not present. […]

Mag-lipase = Mag-lipase (Rattus norvegicus, UniProt Q8R431); test: Inhibition of MAG-lipase: 2-AG metabolism to arachidonic acid; details: 30 nmoles compound with 30 nmoles 2-AG, 30 μg enzyme, 300 μL, 20 min
Protocol: as §1, with “2-Arachidonoyl glycerol” for “anandamide”
The inhibition of 2-AG metabolism was measured by mixing 30 nmoles of the compound with 30 nmoles 2-AG, and 30 μg enzyme preparation in TME buffer (final volume of 300 μL). Again the reaction mixture was treated in the same manner as described above and the concentrations of 2-AG and AA were calculated using external standards. Percent inhibition was calculated using the following equation: % Inhib.=(AA20-AA0)i/(AA20-AA0)s where (AA20-AA0)i is the amount of arachidonic acid formed over 20 minutes from 2-AG with the inhibitor present and (AA20-AA0)s is the amount of arachidonic acid formed over 20 minutes from 2-AG when the inhibitor is not present. […] The reaction mixtures were treated as described above and the amount of AA formed was calculated. The software package GraphPad Prism was utilized to calculate IC50 and Ki. HPLC Conditions:
Chromatographic separation was achieved using an Ultrasphere ODS Pre-column (4.6×45 mm) from Beckman. […]

CB1 cannabinoid receptor = CB1 cannabinoid receptor (Rattus norvegicus, UniProt P20272); test: CB1 receptor binding, [3H]CP-55,940 displacement; details: read-out: Ki CB1 (nM) (o/w PMSFQ); without PMSF (first value of cell); rat forebrain membranes
Protocol: Some inventive analogs were tested for CB2 receptor binding affinity and for CB1 receptor affinity (to determine selectivity). As used herein, “binding affinity” is represented by the Ki value which is the inhibition constant correlated with the concentration of an analog required to occupy the 50% of the total number (Bmax) of the receptors. The lower the Ki value, the higher the binding affinity. […] For the CB1 receptor binding studies, membranes were prepared from rat forebrain membranes according to the procedure of P. R. Dodd et al, A Rapid Method for Preparing Synaptosomes: Comparison with Alternative Procedures, Brain Res., 107-118 (1981). The binding of the novel analogues to the CB1 cannabinoid receptor was assessed as described in W. A. Devane et al, Determination and Characterization of a Cannabinoid Receptor in a Rat Brain, Mol. Pharmacol., 34, 605-613 (1988) and A. Charalambous et al, 5′-azido Δ^8-THC: A Novel Photoaffinity Label for the Cannabinoid Receptor, J. Med. Chem., 35, 3076-3079 (1992) with the following changes. […]
The treated membranes were subsequently used in the binding assay described below. […] Radioactivity was detected using MicroScint 20 scintillation cocktail added directly to the dried filterplates, and the filterplates were counted using a Packard Instruments Top-Count. Nonspecific binding was assessed using 100 nM CP-55,940. […]

O=C(CCC/C=C\C/C=C\C/C=C\C/C=C\CCCCCN=C=S)NC1CC1
IC50 (anandamide transporter): 1900 nM | FAAH % Inhibition [1]: 43% | Mag-Lipase % Inhibition (Mag-lipase): 5.2% | Ki (CB1 cannabinoid receptor): 83.7 nM
